Legend:
D816V KIT = D816V KIT (Homo sapiens (Human), UniProt P10721, D816V); experiment: KIT D816V assay at Km (Caliper electrophoretic mobility shift); details: read-out: INH KIT D816V; biochemical, 15 uM ATP (Km), 90 minutes at 25 C
PDGFRA D842V = PDGFRA D842V (Homo sapiens (Human), UniProt P16234, D842V); experiment: PDGFRA D842V assay at Km (Caliper electrophoretic mobility shift); details: read-out: INH PDFGRA D842V; biochemical, 15 uM ATP (Km), 90 minutes at 25 C
[1] = molecular target: KIT D816V kinase activity (KIT autophosphorylation at tyrosine 719) in HMC1.2 cells (Homo sapiens (Human), UniProt P10721, D816V/V560G); experiment: HMC1.2 autophosphorylation assay (phospho-Y719 c-KIT AlphaLISA); assay type: cell-based; details: read-out: INH-KIT-PHOS-HMC1.2; HMC1.2 mast cell leukemia cell line (KIT V560G, D816V), 90 minutes compound

Sequences of proteins named here, by UniProt entry; tags and fusion partners are left off. Residues count along the entry.
UniProt P10721, 26-976 D816V limits assumed: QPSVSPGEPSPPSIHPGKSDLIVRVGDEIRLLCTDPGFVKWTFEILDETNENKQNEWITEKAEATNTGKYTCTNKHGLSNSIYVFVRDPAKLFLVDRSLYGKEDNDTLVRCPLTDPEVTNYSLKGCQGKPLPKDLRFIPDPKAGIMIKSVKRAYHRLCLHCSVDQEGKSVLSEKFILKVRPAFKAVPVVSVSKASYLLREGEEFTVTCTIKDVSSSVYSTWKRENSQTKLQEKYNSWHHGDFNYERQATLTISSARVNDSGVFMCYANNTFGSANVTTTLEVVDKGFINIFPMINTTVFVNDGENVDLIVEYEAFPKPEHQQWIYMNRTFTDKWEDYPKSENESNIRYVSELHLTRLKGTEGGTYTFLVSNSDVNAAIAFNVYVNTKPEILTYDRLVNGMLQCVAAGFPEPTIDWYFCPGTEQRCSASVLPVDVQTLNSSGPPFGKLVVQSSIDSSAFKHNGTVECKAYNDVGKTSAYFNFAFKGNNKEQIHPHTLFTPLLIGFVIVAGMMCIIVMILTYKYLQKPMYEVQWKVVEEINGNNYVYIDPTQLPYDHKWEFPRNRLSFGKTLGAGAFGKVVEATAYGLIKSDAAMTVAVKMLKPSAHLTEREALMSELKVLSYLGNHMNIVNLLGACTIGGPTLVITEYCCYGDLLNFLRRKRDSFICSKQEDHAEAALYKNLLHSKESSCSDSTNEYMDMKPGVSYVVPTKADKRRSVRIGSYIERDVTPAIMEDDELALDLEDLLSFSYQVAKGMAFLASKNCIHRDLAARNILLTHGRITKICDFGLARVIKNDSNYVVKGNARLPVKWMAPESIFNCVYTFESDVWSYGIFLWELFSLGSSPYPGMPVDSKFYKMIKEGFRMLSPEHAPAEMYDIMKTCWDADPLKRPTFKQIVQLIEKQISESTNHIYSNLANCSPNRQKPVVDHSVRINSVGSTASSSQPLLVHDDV
UniProt P10721, 26-976 V560G/D816V limits assumed: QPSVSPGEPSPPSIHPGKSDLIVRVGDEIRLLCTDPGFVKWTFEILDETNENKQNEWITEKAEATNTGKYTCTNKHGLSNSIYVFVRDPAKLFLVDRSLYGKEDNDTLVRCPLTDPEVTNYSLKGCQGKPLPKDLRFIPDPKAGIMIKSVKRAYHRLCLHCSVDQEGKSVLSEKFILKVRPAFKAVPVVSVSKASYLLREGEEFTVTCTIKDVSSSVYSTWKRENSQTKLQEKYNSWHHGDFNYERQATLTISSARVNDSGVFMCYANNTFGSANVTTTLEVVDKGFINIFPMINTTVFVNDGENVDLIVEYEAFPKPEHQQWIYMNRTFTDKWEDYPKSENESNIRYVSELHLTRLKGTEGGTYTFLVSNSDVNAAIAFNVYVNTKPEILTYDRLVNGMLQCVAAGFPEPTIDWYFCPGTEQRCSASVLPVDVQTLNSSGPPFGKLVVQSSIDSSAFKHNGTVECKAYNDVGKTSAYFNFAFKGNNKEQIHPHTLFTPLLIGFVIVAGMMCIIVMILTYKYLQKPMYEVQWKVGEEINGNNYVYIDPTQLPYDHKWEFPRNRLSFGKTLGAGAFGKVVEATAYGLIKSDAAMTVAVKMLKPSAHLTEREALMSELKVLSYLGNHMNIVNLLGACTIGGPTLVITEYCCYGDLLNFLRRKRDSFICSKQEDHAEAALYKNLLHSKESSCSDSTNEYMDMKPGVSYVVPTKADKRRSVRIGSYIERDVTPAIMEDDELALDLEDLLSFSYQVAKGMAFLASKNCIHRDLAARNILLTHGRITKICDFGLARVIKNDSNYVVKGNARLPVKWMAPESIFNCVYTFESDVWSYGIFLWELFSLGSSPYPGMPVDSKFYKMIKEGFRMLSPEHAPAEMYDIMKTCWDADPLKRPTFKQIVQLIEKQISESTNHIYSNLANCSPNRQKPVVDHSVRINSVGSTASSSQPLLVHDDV
UniProt P16234, 24-1089 D842V limits assumed: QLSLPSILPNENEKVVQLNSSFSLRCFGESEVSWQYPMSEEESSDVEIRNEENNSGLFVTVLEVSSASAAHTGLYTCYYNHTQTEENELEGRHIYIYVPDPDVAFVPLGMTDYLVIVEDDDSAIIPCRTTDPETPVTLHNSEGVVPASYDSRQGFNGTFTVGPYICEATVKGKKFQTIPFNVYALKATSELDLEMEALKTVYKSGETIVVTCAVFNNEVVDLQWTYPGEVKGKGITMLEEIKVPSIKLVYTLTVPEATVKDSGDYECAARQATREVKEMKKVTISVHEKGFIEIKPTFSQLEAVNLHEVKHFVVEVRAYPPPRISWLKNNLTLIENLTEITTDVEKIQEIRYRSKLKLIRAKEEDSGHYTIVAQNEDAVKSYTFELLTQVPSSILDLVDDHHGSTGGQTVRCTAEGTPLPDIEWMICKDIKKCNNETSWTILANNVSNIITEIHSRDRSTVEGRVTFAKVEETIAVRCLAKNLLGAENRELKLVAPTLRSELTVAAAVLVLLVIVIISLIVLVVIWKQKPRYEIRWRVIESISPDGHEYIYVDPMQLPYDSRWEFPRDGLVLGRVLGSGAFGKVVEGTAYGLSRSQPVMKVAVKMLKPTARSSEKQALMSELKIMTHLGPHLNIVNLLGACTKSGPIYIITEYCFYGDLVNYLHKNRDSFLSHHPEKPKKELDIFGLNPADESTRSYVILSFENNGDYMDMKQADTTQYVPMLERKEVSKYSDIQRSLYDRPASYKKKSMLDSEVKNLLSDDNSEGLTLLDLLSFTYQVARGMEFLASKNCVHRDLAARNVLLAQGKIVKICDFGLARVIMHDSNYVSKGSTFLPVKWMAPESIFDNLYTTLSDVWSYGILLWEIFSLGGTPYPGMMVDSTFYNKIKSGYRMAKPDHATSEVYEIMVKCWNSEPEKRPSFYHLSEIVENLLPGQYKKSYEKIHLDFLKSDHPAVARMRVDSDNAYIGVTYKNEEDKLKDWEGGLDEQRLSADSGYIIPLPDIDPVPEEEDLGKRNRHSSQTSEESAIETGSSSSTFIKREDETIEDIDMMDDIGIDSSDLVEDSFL

Row | IC50 (D816V KIT) [µM] | IC50 (PDGFRA D842V) [µM] | IC50 [1] [µM] | Structure (SMILES)
1 | < 0.001 | < 0.001 | < 0.05 | C[C@](O)(c1ccc(F)cc1)c1cnc(N2CCN(c3ncnn4cc(-c5cnn(C6COC6)c5)cc34)CC2)nc1
2 | 0.00101 to 0.01 | < 0.001 | < 0.05 | Cn1cc(-c2cc3c(N4CCN(c5ncc([C@](C)(O)c6ccc(F)cc6F)cn5)CC4)ncnn3c2)cn1
3 | 0.01 to 0.1 |  | 0.1 to 1 | C[C@](O)(c1ccc(F)cc1)c1cnc(N2CCN(c3ncnn4cc(-c5ccc(C6CC6)cc5)cc34)CC2)nc1
